The values that follow come from patent publication US6841172B1, “Method for iron delivery to a patient by transfer from dialysate” (HemoCleanse, Inc., priority 1996, dated 2005).

The nature of data set [1]: Solubility of ferrous gluconate in dialysate concentrate. It is filed as physicochemical. As to the method: The high concentration of solutes in a dialysate concentrate results in a reduced amount of water which is available to dissolve additional solutes. Therefore, the most preferred iron complexes used in accordance with the invention are highly soluble. […] In contravention of this belief, the present inventor has discovered, for example, that ferrous gluconate is stably soluble in such a concentrate at levels over 8 grams per 100 ml (dl), thus providing an iron concentration of about 1 gram per 100 ml. As is readily ascertainable by one skilled in the art, this would result in an iron concentration in dialysate of approximately 30 mg (30,000 μg) per 100 ml after a 35:1 dilution.

The conditions of data set [2]: delivered intraperitoneally; cited from earlier work.
For data set [3] the following is noted: after intravenous injection; cited from earlier work.

As for ferrous gluconate, the “iron concentration provided in the concentrate” value in data set [1] (at over 8 grams ferrous gluconate per 100 ml concentrate) was “about 1 gram per 100 ml”. Moreover, the “stably soluble level in dialysate concentrate” value in data set [1] (dialysate concentrate) was “over 8 grams per 100 ml”.
With iron dextran, in data set [2], the “fraction of iron bioavailable” value is “about half” and the “fraction stored permanently in the body, not available for red cell production” value is given as “about 50%”. In data set [3], the “fraction of iron bio-available for red cell production” value is reported as “about half”.
